Among the data in ChEMBL document CHEMBL2074557, “Disposition of ivermectin and cyclosporin A in CF-1 mice deficient in mdr1a P-glycoprotein” (Drug Metab Dispos, 1999) are Activity values, retold here.

Protein sequences, listed by entry. Tags and fused reporters are not part of them.
UniProt P21447, whole entry: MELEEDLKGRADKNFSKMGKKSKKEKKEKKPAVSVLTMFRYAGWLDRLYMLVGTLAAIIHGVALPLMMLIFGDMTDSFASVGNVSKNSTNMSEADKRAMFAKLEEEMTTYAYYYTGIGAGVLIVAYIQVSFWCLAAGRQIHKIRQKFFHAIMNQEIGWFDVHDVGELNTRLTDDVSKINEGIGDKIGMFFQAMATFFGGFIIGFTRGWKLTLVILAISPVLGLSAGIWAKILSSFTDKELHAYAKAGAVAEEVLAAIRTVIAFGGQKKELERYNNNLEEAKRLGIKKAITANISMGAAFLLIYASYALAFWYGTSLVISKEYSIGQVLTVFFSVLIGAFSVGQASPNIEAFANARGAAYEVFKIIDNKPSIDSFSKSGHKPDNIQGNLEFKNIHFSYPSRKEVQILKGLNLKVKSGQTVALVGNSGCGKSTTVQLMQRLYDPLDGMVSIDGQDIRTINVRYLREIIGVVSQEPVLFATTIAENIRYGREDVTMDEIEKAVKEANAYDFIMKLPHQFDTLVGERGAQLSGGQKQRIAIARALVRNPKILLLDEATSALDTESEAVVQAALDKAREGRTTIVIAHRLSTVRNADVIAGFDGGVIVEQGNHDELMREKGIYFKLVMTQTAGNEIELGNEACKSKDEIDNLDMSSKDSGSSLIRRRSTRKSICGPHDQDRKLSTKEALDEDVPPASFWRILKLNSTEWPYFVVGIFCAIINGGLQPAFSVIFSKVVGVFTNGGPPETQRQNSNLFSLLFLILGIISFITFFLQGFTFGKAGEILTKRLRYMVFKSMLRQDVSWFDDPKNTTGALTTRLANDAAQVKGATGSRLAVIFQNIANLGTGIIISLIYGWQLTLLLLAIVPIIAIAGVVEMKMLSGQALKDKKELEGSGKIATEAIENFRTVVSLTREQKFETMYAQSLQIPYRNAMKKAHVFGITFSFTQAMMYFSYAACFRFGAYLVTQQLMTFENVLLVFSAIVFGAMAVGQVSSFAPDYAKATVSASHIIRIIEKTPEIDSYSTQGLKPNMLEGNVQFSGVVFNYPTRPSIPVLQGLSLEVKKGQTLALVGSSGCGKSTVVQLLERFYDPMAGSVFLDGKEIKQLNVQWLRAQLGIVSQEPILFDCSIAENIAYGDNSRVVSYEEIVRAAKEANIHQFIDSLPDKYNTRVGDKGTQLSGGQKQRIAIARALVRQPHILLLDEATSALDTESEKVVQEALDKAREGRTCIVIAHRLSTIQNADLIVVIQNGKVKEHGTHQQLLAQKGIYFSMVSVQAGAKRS

The target of this series is ATP-dependent translocase ABCB1 (Mus musculus, UniProt P21447). The series can be described thus: TP_TRANSPORTER: increase in brain concentration in PGP(-/-) mouse. The class given is functional, organism-based. The note with it: in vivo.

As to IVERMECTIN, the Activity entry is “substrate [+]”.
